These results are taken from ChEMBL document CHEMBL1146370 (Bioorg Med Chem, 2007).

Sequences of proteins named here, by UniProt entry; tags and fusion partners are left off.
UniProt P37288, whole entry: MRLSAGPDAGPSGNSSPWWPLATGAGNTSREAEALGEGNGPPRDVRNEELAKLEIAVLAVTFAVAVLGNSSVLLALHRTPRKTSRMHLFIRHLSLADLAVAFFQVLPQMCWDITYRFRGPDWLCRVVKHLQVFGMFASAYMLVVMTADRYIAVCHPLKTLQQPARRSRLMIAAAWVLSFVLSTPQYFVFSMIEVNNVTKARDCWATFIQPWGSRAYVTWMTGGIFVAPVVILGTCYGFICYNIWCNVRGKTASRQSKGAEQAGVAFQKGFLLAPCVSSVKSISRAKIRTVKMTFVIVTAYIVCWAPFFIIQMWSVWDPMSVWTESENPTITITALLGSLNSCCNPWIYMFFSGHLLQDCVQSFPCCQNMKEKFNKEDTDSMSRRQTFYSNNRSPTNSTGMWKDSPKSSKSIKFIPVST

For this experiment, the target named is Vasopressin V1a receptor (Homo sapiens, UniProt P37288). Description: Binding affinity for human cloned vasopressin V1a receptor expressed in CHO cells. The experiment is classed as cell-based. In outline: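 Whole-cell competition binding on CHO cells stably expressing human V1a, grown in alpha-MEM with 10% FBS and 250 ug/ml G418. Cells were plated at least 2 days ahead and incubated 30 min at 37 °C in HEPES/BSA/DMEM buffer (pH 7.0) with 1 nM [3H]AVP and 5 test concentrations (usually 0.1–1000 nM), in triplicate. Nonspecific binding was set with 100 nM AVP. Bound radioactivity was SDS-lysed and scintillation-counted. Curve-fit IC50 was converted to Ki with a 0.61 factor.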

For the compound `CC(C)C[C@@H](C(=O)OCc1ccccc1)N1C(=O)[C@@H](N2C(=O)OC[C@@H]2c2ccccc2)[C@H]1/C=C/c1ccccc1`, the IC50 (in general, the concentration needed to halve the response being measured) is 39 nM.

Consider `O=C(NCc1cccc(C(F)(F)F)c1F)[C@H](CC(=O)N1CCC(N2CCCCC2)CC1)N1C(=O)[C@@H](N2C(=O)OC[C@@H]2c2ccccc2)[C@H]1/C=C/c1ccccc1`, for which affinity was put at a Ki of 1.13 nM.

`CC(C)(C)C(O)C(C(=O)OCc1ccccc1)N1C(=O)[C@@H](N2C(=O)OC[C@@H]2c2ccccc2)[C@H]1/C=C/c1ccccc1` (some centres undefined) registered an IC50 of 10 nM.

For `CC1(C(C(=O)NCc2ccccc2)N2C(=O)[C@@H](N3C(=O)OC[C@@H]3c3ccccc3)[C@H]2/C=C/c2ccccc2)OCCO1` (some centres undefined), the IC50 is 43 nM.
